Values of other authors, collected in patent US10472677B2, “Translational dysfunction based therapeutics” (Translational Therapeutics, Inc., priority 2005, dated 2019).

Sequences of proteins named here, by UniProt entry; tags and fusion partners are left off.
UniProt P06730, whole entry, species assumed: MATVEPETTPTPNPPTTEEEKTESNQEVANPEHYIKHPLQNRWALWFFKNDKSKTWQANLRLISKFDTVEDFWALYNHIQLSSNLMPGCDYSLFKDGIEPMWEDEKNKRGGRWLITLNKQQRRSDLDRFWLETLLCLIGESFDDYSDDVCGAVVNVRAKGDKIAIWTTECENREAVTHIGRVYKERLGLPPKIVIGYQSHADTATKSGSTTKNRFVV

Target: eIF4E (Homo sapiens, UniProt P06730)
Settings: read-out: Kd of eIF4E for cap; cited from earlier work

Cn1c[n+]([C@@H]2O[C@H](COP(=O)(O)OP(=O)([O-])OP(=O)(O)OC[C@H]3O[C@@H](n4cnc5c(=O)[nH]c(N)nc54)[C@H](O)[C@@H]3O)[C@@H](O)[C@H]2O)c2nc(N)[nH]c(=O)c21 [m7GpppG]
Kd: ~200 nM
